Data as given in patent publication US20070105790A1, “Pancreatic cancer treatment using Na+/K+ ATPase inhibitors” (Bionaut Pharmaceuticals, Inc., priority 2004, published 2007).

Assays:
Na+/K+-ATPase = biological target: T1, Na+/K+-ATPase (Canis lupus familiaris, UniProt P50997); test: Na+/K+-ATPase inhibition, enzyme preparation from dog kidney; type: biochemical
T1 construct: enzyme preparation from dog kidney (Sigma); purchased Sigma; host or cells: dog kidney tissue preparation
Method: Anti-prolerafitive IC50 values were determined by MTS assay using an A549 cell line. Na^+/K^+-ATPase inhibition IC50 values were obtained using enzyme preparation from dog kidney (Sigma).

[1] = steady state delivery in mice
[2] = amount to normalize tachycardia/fibrillation; cited from earlier work

In the case of C[C@@H]1OC(OC2C=C3CCC4C(CC[C@]5(C)[C@@H](c6ccc(=O)oc6)CC[C@]45O)[C@@]3(C)CC2)[C@H](O)[C@H](O)[C@H]1O (stereo partly drawn) [BNC-4, proscillaridin], the “potency relative to BNC-151” value (Na+/K+-ATPase) is given as “about 10 times”, the “therapeutic serum concentration required to achieve >60% TGI” value [1] is given as “about 48+23 ng/ml” and the “optimal therapeutic level (EDp.o.)” value [2] is given as about 5 mg.
